According to PubChem BioAssay AID1422 (Emory University Molecular Libraries Screening Center, 2008):
The entries are a selection whose mix differs from that of the whole data set. Active and inactive are the calls of the source.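 Rule for the calls: active = percent inhibition above 40 after rounding to a whole number; inactive = the rest.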

Chains of the proteins cited; added tags and fusions are not shown.
UniProt P43116, whole entry: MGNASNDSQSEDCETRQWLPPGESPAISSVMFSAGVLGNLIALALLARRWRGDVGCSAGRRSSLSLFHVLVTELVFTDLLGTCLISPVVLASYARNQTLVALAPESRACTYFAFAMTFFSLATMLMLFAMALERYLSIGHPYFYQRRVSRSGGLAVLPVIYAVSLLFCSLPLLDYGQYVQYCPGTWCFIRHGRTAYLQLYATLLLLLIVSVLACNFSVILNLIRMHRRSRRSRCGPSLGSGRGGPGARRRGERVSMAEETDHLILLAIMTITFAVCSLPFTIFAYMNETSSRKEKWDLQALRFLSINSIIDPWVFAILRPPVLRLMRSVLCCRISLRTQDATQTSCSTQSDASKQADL

Each compound was assayed against Prostaglandin E2 receptor EP2 subtype (Homo sapiens) (UniProt P43116) (assay: blockers of PGE2-driven EP2 cAMP signalling – TR-FRET cAMP, C6 glioma cells, primary screen (AID 1422;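 note: rat C6 glioma host cells with rolipram phosphodiesterase inhibitor present; the protocol text gives 20 µM as final concentration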)). Details: C6 glioma cells expressing human EP2, cAMP TR-FRET; at 25 µM; stronger effect = higher value; cells stimulated with saturating PGE2.

Row | SMILES | inhibition
1 | O=C(O)C1(Nc2ccccc2)CCN(Cc2ccccc2)CC1 | inactive: 11.5%
2 | CC(C)(C)OC(=O)N1CCC(Nc2ccccc2)CC1 | inactive: -0.72%
3 | CCOc1ncccc1C(=O)NCC1(N2CCOCC2)CCCCC1 | inactive: 2.79%
4 | CCCOc1ccc(C)cc1CN(CCCl)CCCl | inactive: 14.4%
5 | CCC(CO)(C(=O)OC1CN2CCC1CC2)c1ccccc1 (stereo unspecified) | inactive: 10.9%
6 | COc1cc(OC)cc(C(=O)NCC2(N3CCOCC3)CCCCC2)c1 | inactive: 5.98%
7 | Fc1ccccc1NC1CCN(Cc2ccccc2)CC1 | inactive: -2.07%
8 | CN(C)c1ccc(C(=O)NCC2(N3CCCCC3)CCCCC2)cc1 | inactive: 6.96%
9 | CCN1CCC(Nc2cccc(F)c2)CC1 | inactive: 5.62%
10 | N#Cc1ccc(C(=O)NCC2(N3CCCCC3)CCCCC2)cc1 | inactive: 5.37%
11 | c1ccc(CN2CCC(Nc3ccccc3)CC2)cc1 | inactive: 10.9%
12 | COc1ccc(C(=O)NCC2(N3CCOCC3)CCCCC2)cc1OC | inactive: 10.9%
13 | O=C(OC1CN2CCC1CC2)C1c2ccccc2C=Cc2ccccc21 (stereo unspecified) | inactive: 6.91%
14 | CN(C)c1cccc(C(=O)NCC2(N3CCCCC3)CCCCC2)c1 | inactive: 6.43%
15 | COc1ccc(CN(CCCl)CCCl)cc1Cl | inactive: 14.1%
16 | CC(C)c1ccc(NC2CCN(C(=O)OC(C)(C)C)CC2)cc1 | inactive: 8.27%

Row | SMILES | inhibition
17 | CN1CCC(Nc2cccc(F)c2)CC1 | inactive: 4.15%
18 | NC1CCCCC1.NP(=O)(O)N(CCCl)CCCl | inactive: 6.48%
19 | O=C(NCC1(N2CCCCC2)CCCCC1)c1cccc([N+](=O)[O-])c1 | inactive: 8.37%
20 | N#CC1(Nc2ccccc2)CCN(CCc2ccccc2)CC1 | inactive: 10.2%
21 | COc1ccc(NC2CCN(C(=O)OC(C)(C)C)CC2)cc1 | inactive: 5.88%
22 | CN1CCN(CCOC(=O)C(O)(c2ccccc2)c2ccccc2)CC1 | inactive: 8.65%
23 | O=C(NCC1(N2CCOCC2)CCCCC1)c1cc(=O)[nH]c2ccccc12 | inactive: 16.4%
24 | COc1ccc(NC2CCN(CCc3ccccc3)CC2)c(OC)c1 | inactive: 6.11%
25 | CCOc1ccc(C)cc1CN(CCCl)CCCl | inactive: 13.9%
26 | Cc1ccc(OCC(C)C)c(CN(CCCl)CCCl)c1 | inactive: 6.39%
27 | COc1ccc(C(=O)NCC2(N3CCCCC3)CCCCC2)c(OC)c1OC | inactive: 9.86%
28 | CCOC(=O)N1CCC(Nc2ccc(OC)cc2)CC1 | inactive: 4.94%
29 | N#CC1(Nc2ccccc2)CCN(Cc2ccccc2)CC1 | inactive: 7.91%
30 | O=C(OC1CN2CCC1CC2)C1c2ccccc2Oc2ccccc21 (stereo unspecified) | inactive: 1.39%
31 | O=C(NCC1(N2CCOCC2)CCCCC1)c1cc2ccccc2o1 | inactive: 16.1%
